Assay results as given in patent publication US20230220037A1, “NOVEL USE” (GlaxoSmithKline Intellectual Property (No.3) Limited, priority 0001, published 2023).

Test system: rats
Test: Five-day rat dural infusion migraine model, periorbital von Frey testing
Format: in vivo
Conditions: supra-dural infusion 5 days; Pregnenolone sulphate 5 mM, CIM0216 215 μM
Experimental: The five-day rat Dural infusion migraine model is based on repeated inflammatory dural stimulation to mimic the repeated activation of dural afferents believed to occur in patients with recurrent migraine headache. In this model, rats are tested in the periorbital region for mechanical allodynia (a pain response to stimuli which are not normally painful) using von Frey fibres, which are small calibrated fibres which deliver a calibrated amount of force.
The surgery, infusion, and testing followed the modification of the method of Oshinsky & Gomoncharconsiri, 2007, supra. Briefly, rats were habituated and trained for 1-2 weeks and then fitted with a stainless-steel cannula (22GA, Plastics One) under isoflurane anaesthesia. […]
Periorbital thresholds were monitored during the recovery period to ensure the thresholds returned to pre-surgery baselines. […]
Pre-infusion sensory testing occurred on Day 1 of the testing schedule to provide a point of comparison for subsequent testing. […] Based on the response pattern and the force of the final filament, the periorbital threshold (g) was calculated (Chaplan et al., 1994, Quantitative assessment of tactile allodynia in the rat paw. Journal of neuroscience methods, 53(1), 55-63). The supra-dural infusions were above the dura in the right brain hemisphere; therefore, the right periorbital threshold data only was recorded. […]

pregnenolone sulfate
Overt adverse effects / body weight: do not cause overt adverse effects
